We go through 1 molecule from PubChem BioAssay AID1645887 (National Center for Advancing Translational Sciences (NCATS), 2021).

By UniProt entry, the sequences of proteins in these tests, tags left out.
UniProt Q8WZA2, whole entry: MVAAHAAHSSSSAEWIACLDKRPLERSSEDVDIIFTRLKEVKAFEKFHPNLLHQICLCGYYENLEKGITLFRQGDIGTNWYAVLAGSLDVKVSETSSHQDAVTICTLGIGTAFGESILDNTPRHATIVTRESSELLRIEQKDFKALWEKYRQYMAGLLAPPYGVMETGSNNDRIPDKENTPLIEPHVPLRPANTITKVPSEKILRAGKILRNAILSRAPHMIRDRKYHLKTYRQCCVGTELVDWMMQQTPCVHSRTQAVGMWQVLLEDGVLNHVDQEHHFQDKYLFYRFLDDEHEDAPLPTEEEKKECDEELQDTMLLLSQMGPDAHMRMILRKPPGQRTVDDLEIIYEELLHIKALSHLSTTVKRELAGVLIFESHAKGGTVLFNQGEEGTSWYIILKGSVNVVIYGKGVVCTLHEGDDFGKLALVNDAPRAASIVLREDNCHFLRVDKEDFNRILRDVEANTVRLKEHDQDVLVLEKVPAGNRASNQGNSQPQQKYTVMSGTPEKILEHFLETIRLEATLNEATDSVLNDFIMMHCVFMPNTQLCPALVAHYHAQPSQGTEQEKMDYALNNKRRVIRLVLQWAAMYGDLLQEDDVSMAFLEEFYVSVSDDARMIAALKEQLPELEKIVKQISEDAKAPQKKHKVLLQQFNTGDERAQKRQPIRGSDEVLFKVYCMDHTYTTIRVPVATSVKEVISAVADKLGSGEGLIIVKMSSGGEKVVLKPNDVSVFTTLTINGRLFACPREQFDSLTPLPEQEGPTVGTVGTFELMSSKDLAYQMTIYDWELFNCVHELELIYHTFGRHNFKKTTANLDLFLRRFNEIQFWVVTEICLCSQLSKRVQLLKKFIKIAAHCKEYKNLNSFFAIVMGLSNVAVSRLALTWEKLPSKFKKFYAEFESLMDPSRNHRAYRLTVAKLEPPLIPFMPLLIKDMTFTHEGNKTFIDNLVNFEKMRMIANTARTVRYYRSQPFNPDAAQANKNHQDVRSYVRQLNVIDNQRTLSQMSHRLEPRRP

Only a part is listed here, and it is no random draw. Some tests of the compounds listed are not included; inactive here does not mean inactive elsewhere. The source made the active and inactive calls. Calls follow the shape of the dose curve; as a rule, active = well fitted activation curve with a large enough effect; inconclusive = small, poorly fitted or top-dose-only effect, or another doubt; inactive = no such curve, though single readings can be large or run the other way.
% is scaled to controls: 0 for no effect and ±100 for the full control effect.

In the assay the target is Rap guanine nucleotide exchange factor 4 (Homo sapiens) (UniProt Q8WZA2). The assay is described as follows: Validation qHTS for agonist of cAMP-regulated guanine nucleotide exchange factor 4 (EPAC2).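 Also: exchange makes BODIPY-GDP fluorescence drop when released from Rap1B; series mostly up to about 150 µM.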 As to conditions: EPAC2 Rap1B BODIPY-GDP exchange, fluorescence; hits give high values. The text has this:
Principle Investigator: Xiaodong Cheng Ph.D.
The University of Texas Medical Branch, […], TX
In multi-cellular eukaryotic organisms, the effects of cAMP are transduced by two ubiquitously-expressed intracellular cAMP receptors, the classic protein kinase A/cAMP-dependent protein kinase (PKA/cAPK) and the more recently discovered exchange protein directly activated by cAMP/cAMP-regulated guanine nucleotide exchange factor (EPAC/cAMP-GEF). Both PKA and EPAC are ubiquitously expressed in all tissues, and an increase in intracellular cAMP levels will lead to the activation of both PKA and EPAC. […]
This qHTS will be used to screen the Molecular Libraries Small Molecule Repository (MLSMR) as a concentration-titration series using the NCGC unique quantitative screening (qHTS) platform to find activators for EPAC1. […] Activators are identified by monitoring the change in fluorescence signal as the exchanged free BODIPY-GDP has a reduced fluorescence compared to Rap1-bound BODIPY-GDP. […]
Briefly, three uL of reagents (100 nM EPAC2, 250 nM RAP1B-BODIPY-GDP, 50 uM GDP) were dispensed into a 1536-well Greiner black solid-bottom medium binding assay plate. […] The assay plates were read at 5 minute intervals for 30 minutes in the ViewLux plate reader using 480nm excitation and 540nm emission filters. […]
On the technique in general: In qHTS, concentration-response curves come from the screen itself.
Take `CN1CCCC(OC(=O)C(O)(c2ccccc2)c2ccccc2)C1` (stereo unspecified): the activation is inactive: -37.5%.
